Measured values published in PubChem BioAssay AID1347420 (Sanford-Burnham Center for Chemical Genomics, 2020).
The entries are a selection whose mix differs from that of the whole data set. Inconclusive results are not listed. Activity calls are given as the source filed them.

The chains behind the UniProt entries cited, without tags or fusion partners. Where a name states a change or a piece, a line headed by the entry shows the natural chain unless it says otherwise.
UniProt O00391: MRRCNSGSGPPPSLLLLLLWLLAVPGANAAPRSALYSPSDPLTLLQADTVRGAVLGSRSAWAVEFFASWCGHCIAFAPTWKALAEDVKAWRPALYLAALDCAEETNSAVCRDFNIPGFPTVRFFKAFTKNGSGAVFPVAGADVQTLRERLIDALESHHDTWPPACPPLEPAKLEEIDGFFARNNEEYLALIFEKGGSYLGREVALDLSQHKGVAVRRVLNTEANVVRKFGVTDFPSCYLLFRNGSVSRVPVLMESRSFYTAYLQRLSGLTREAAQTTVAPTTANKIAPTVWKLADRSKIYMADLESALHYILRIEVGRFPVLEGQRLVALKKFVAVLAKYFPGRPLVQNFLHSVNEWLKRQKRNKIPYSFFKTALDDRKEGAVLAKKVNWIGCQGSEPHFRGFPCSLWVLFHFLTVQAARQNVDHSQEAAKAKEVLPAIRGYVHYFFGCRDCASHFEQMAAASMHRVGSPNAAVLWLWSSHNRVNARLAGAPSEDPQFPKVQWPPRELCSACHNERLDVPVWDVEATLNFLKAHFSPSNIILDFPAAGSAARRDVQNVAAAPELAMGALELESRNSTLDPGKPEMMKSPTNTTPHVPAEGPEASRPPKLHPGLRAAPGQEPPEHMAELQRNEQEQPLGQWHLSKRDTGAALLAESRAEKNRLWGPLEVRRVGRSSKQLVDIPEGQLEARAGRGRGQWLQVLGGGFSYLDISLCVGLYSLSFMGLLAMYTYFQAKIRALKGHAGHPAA

Each compound was assayed against Sulfhydryl oxidase 1 (Homo sapiens) (UniProt O00391) (assay: QSOX1 enzyme inhibitors, primary screen, biochemical, HyperBlu H2O2 luminescence, HTS (AID 1347420; further: values above 100% were filed as inconclusive)). Details: recombinant QSOX1, HyperBlu H2O2 luminescence; at 12.5 µM; stronger effect = higher value; active = any value above zero.

| SMILES | inhibition |
| --- | --- |
| CN(C(=O)Cc1ccc(Cl)c(Cl)c1)[C@H]1CCCC[C@@H]1N1CCCC1 | inactive: -1.9% |
| CN(C(=O)Cc1ccc(Cl)c(Cl)c1)[C@@H]1CCCC[C@@H]1N1CCCC1 | active: 13.3% |
| CN(CCCl)Cc1cc(Cl)c(NC2=NCCN2)c(Cl)c1 | active: 10% |
| CN(C(=O)Cc1ccccc1)[C@@H]1CC[C@]2(CCCO2)C[C@H]1N1CCCC1 | active: 31.8% |
| CN(C(=O)Cc1ccc(Cl)c(Cl)c1)[C@@H]1CC[C@]2(CCCO2)C[C@H]1N1CCCC1 | active: 8.7% |
